Earlier results as cited in paper PMC7650794, “Pharmacological Modulation of Blood–Brain Barrier Permeability by Kinin Analogs in Normal and Pathologic Conditions” (Pharmaceuticals, 2020).

Tested on: GBM patients, EGFR-positive glioma
Set-up: method as in 2 sources, one per row (each row's own in cited_ref): ref [40] = [40]; PMID 28791656; doi:10.1007/s40263-017-0456-6; 40. Westphal M. Maire C.L. Lamszus K. EGFR as a Target for Glioblastoma Treatment: An Unfulfilled Promise CNS Drugs 2017 31 723 735 10.1007/s40263-017-0456-6 28791656 PMC5573763 ||| ref [41] = [41]; PMID 29790314; 41. Kulason K.O. Schneider J.R. Chakraborty S. Filippi C.G. Pramanik B. Wong T. Fralin S. Tan K. Ray A. Alter R.A. Superselective intraarterial cerebral infusion of cetuximab with blood brain barrier
Settings: cited from earlier work

Cetuximab: recombinant monoclonal antibody targeting the EGFR
safety and efficacy with mannitol-induced BBB disruption (prospective Phase I study, mannitol-induced BBB disruption prior to infusion, EGFR-positive glioma patients, ref [41]): promising initial findings
clinical efficacy for GBM (single agent or in combination, ref [40]): failed to demonstrate clinical efficacy either as a single agent or in combination for GBM
